According to US20220380768A1 (TALLAC THERAPEUTICS, published 2022):
Numbering of substitutions follows the chain as printed.

B1: TNT76 (antibody, human IgG1, kappa, V domains shown)
VH: QVQLQESGPGLVKPSDTLSLTCTVSGFAFSIYDMSWIRQPPGKGLEWIAYISSGGGTTYYNPSLKSRVTISVDTSKNQFSLKLSSVTAADTAVYYCARHSGYGTHWGVLFAYWGRGTLVTVSS
VL: DIQMTQSPSSVSASVGDRVTITCRASQDIHGYLAWYQQKPGKAPKLLIYYTSSLQSGVPSRFSGSGSGTDFTLTISSLQPEDFATYYCQQGNTLPWTFGQGTKLEIKR
B2: TNT80 (antibody, human IgG1, kappa, V domains shown)
VH: B1 VH
VL: B1 VL with V11L, D28S, H30S, G31S, A34N, Y50A, T51A
B3: TNT70 (antibody, human IgG1, kappa, V domains shown)
VH: QVQLLESGGGVVQPGGSLRLSCAASGFAFSIYDMNWVRQAPGKGLEWVSAISSGGGTTYYADSVKGRFTISRDNAKNSLYLQMNSLRAEDTAVYYCARHSGYGTHWGVLFAYWGRGTLVTVSS
VL: B1 VL with V11L, A34N, S53I, Q55H, Y87F
B4: TNT87 (antibody, human IgG1, kappa, V domains shown)
VH: B3 VH with Q1E, L5V, V11L, A28T, I31S, D33E, A50Y, G54S, G56S, T58I
VL: DIVMTQTPLSLSVTPGQPASISCRASQDIHGYLNWYQQKPGQSPQLLIYYTSILHSGVPDRFSGSGSGTDFTLKISRVEAEDVGVYFCQQGNTLPWTFGGGTKLEIKR
B5: TNT74 (antibody, human IgG1, kappa, V domains shown)
VH: B3 VH
VL: B1 VL

biological target: T1, human CD22 on B cells of human PBMCs (human, UniProt P20273 20-847); test: flow cytometry; Alexa Fluor 647-labelled antibody, human PBMCs
T1 construct: whole, on cells; also called CD22 on human B cells
Protocol: (§1) Binding of humanized anti-CD22 antibodies to human or cynomolgus PBMCs was measured by flow cytometry. Trima residuals were received from Vitalant and cynomolgus monkey whole blood were received from BioIVT. Both were diluted 1:4 with Phosphate Buffered Saline (PBS, Gibco). Diluted blood was split into two tubes and underplayed with 15 mL Ficoll-Paque (GE Healthcare). Tubes were centrifuged for 30 minutes at 400×g. PBMCs were collected from the interface, washed and resuspended in FACS buffer (PBS with 0.5% Bovine Serum Albumin (Gibco)). 100K PBMCs from human and cynomolgus monkey were plated in 96-well plates and pelleted by centrifugation for five minutes at 400×g and stained at 4° C. in 100 μl Fixable Viability Dye eFluor 780 (Thermo Fisher) diluted 1:4000 in PBS. Cells were centrifuged and stained at 4° C. in 100 μl FACS buffer for 30 minutes containing FcR Blocking Reagent (Miltenyi Biotec), anti-CD20 and Alexa Fluor 647 conjugated CD22 binding antibodies, which were labeled using Molecular Probes Alexa Fluor 647 Protein Labeling kit (Molecular Probes) according to manufacturer's protocol. Cells were centrifuged and washed twice in 200 μl FACS buffer and fixed in 100 μl 0.5% paraformaldehyde. Cells were analyzed on Attune NxT Flow Cytometer (Thermo Fisher), with subsequent data analysis by Flowjo 10.7 (Treestar). Dead cells were excluded by gating on the eFluor 780-negative population. CD20+ cells were gated to identify B cells and median fluorescent intensity for CD22 was determined.
(§2) The fold increase in binding was determined by calculating the ratio of CD22 median fluorescent intensity on CD20⁺ over CD20⁻ cells.

Point of comparison: B1, “CD22: CD20+/CD20- (ratio of median fluorescent intensity)” value 20.4 fold. Against it:
- B2 — lower, 20.3 fold
- B3 — higher, 23.6 fold
- B4 — higher, 23.7 fold

biological target: T2, cynomolgus monkey CD22 on B cells of cynomolgus PBMCs (cynomolgus monkey); test: flow cytometry; Alexa Fluor 647-labelled antibody, cynomolgus PBMCs
T2 construct: whole, on cells; also called cynomolgus CD22; Cyno CD22
Protocol: as §1, §2

Point of comparison: B3, “CD22: CD20+/CD20- (ratio of median fluorescent intensity)” value 11.2 fold. Against it:
- B1 — lower, 1.6 fold
- B2 — lower, 1.8 fold
- B4 — higher, 16 fold

biological target: T2, cynomolgus monkey CD22 on B cells of …; test: flow cytometry; Alexa Fluor 647-labelled antibody on CD20+ B cells of cynomolgus PBMCs
Protocol: as §1, with “Cells were centrifuged and washed twice in 200 μl FACS buffer and fixed in 100 μl 0.5% paraformaldehyde.” left out, “Dead cells were excluded by gating on the eFluor 780-negative population.” left out

In the case of B5, the “CD22 Median Fluorescent Intensity on CD20+ cells” value is reported as 185.

biological target: T3, human CD22 (d1 to d7 domain according to NP_001762.2) (human, UniProt P20273 20-687); test: SPR; mAb supernatant captured on protein A chip, human CD22 injected
T3 construct: domain: d1 to d7 domain; also called human CD22-gly; Siglec-2
Protocol: Binding of humanized anti-CD22 antibodies to human CD22 was measured by surface plasmon resonance (SPR). For assessment of binding by SPR, biotinylated protein A (15 μg/mL) was immobilized to the surface of an NLC chip. 30 μL of mAb supernatant was added to 150 μL of PBS-T and captured over the protein A surface. Serial dilutions of human CD22-gly (300 nM, 3× dilution) were injected over the mAb-coated chips, and binding kinetics were determined. Chips were regenerated using 4:1 v/v of Pierce IgG elution butter/4M NaCl.

Point of comparison: B1, Kd 0.0302 µM. Against it:
- B2 — within 1.5-fold, 0.0233 µM
- B4 — 4.4-fold lower, 0.00685 µM

Point of comparison: B2, koff 0.00519 s⁻¹. Against it:
- B1 — within 1.5-fold, 0.00601 s⁻¹
- B5 — 1.8-fold lower, 0.00289 s⁻¹
- B4 — 3-fold lower, 0.00171 s⁻¹

Point of comparison: B2, kon 223000 M⁻¹ s⁻¹. Against it:
- B1 — within 1.5-fold, 199000 M⁻¹ s⁻¹
- B5 — within 1.5-fold, 186000 M⁻¹ s⁻¹
- B4 — within 1.5-fold, 250000 M⁻¹ s⁻¹

biological target: T3, human CD22 (d1 to d7 domain according …); test: SPR; summary table, column 'CD22 KD (nM)'

Point of comparison: B2, Kd 0.023 µM. Against it:
- B1 — within 1.5-fold, 0.03 µM
